From patent publication US20080194024A1, “Culture of Non-Embryonic Cells at High Cell Density” (priority 2005, published 2008)

The chains behind the UniProt entries cited, without tags or fusion partners.
UniProt P49841, whole entry, species assumed: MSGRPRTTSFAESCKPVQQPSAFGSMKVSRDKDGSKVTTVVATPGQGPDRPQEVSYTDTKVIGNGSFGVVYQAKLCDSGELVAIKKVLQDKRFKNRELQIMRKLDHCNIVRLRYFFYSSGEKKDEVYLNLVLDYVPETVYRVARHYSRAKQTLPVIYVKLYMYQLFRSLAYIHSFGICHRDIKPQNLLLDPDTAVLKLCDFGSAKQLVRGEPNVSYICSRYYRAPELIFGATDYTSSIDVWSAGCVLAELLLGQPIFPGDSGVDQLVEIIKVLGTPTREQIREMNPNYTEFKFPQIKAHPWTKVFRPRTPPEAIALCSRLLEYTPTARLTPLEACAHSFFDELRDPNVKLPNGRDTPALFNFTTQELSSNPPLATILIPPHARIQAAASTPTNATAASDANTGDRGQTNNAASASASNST

Assays:
[1] = test system: murine low-density MAPCs
[2] = test system: Xenopus embryos; conditions: developmental assays; cited from earlier work
[3] = target: GSK-3β (Homo sapiens, UniProt P49841); conditions: cited from earlier work

**Q.** What does the source list for O=C1Nc2cc(Br)ccc2/C1=C1/Nc2ccccc2/C1=N\O [BIO, 6-bromoindirubin-3′-oxime]?
**A.** FACS phenotype [1]: not affected; activity in developing Xenopus embryos [2]: mimicked Wnt signaling

**Q.** For O=C1Nc2ccccc2/C1=C1/Nc2ccccc2/C1=N\O [Indirubin-3′-oxime], which IC50 [3] is on record?
**A.** Its IC50 is 22 nM.
